Our source for the IC50 values is patent US8067586B2, “Fused heteroaryl derivatives” (Astellas Pharma Inc., priority 2000, dated 2011).

The structures appear in SMILES notation.

This experiment has as its system A375 cells. As to the kind of experiment: Melanoma cell growth inhibition (Alamar Blue). Type of experiment: cell-based. Conditions: Homo sapiens, A-375, 46 h, read-out: IC50, melanoma cell growth inhibition. On the procedure:
A375 cells from a melanoma cell line were cultured in DMEM medium (GIBCO) supplemented with 10% fetal bovine serum. A375 cells at 10,000 cells/100 μl were added to a 96 well plate which contained 1 μl/well of the test compounds (final concentration of 0.001˜30 μM). After incubation for over 46 hours, Alamar Blue reagent was added to the medium (10 μl/well).
For orientation: Resazurin is reduced to fluorescent resorufin, in cell work by metabolically active cells.

With `Nc1ccc(C(=O)Nc2cccc(-c3nc(N4CCOCC4)c4oc5ncccc5c4n3)c2)cn1` [Co 17, 6-amino-3′-(4-morpholinopyrido[3′,2′:4,5]furo[3,2-d]pyrimidin-2-yl)nicotinanilide], the IC50 – broadly, the concentration that inhibits the measured activity by half – was in the range of 0.33 to 4.26 µM.
